# Apparent affinities of Ab-95 variants for a coronavirus HR2 peptide

Values reported by Engelhart et al. 2022, doi:10.1038/s41597-022-01779-4 (FLAb copy).

Target: peptide PDVDLGDISGINAS, taken from heptad repeat 2 (HR2) of SARS-CoV-2 spike.

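Phage display of a naive human antibody library on the peptide gave the parent. AAYL52 was designed without a model: most single CDR substitutions and a random sample of double and triple ones. The assay is AlphaSeq: two haploid yeast populations carry antibody and antigen on their surface. The frequency of each diploid, read from paired DNA barcodes, reflects how well the two displayed proteins bind. Each replicate has its own calibration line, from reference interactions of the BCL2 family. Each pool was mated in three replicate cultures.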

Parent: Ab-95, a human scFv built as VH, three GGGGS repeats, VL. Only the CDRs of the light chain vary.
VH: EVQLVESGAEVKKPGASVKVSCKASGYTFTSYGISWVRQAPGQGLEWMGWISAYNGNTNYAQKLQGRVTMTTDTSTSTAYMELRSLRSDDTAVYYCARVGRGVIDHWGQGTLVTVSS
VL: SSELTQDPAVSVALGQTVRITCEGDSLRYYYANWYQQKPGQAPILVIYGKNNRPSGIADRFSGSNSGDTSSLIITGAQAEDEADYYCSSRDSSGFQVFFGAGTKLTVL

Variants are written as CDR1, CDR2 and CDR3 of the light chain (limits as in the source). Parent: EGDSLRYYYAN, GKNNRPS, SSRDSSGFQVF. The Kd shown is the geometric mean over detected replicates; a lower Kd is a better binder. A pair that was not seen in any replicate is written "not detected"; this usually means weak binding, but a binder can also be missed. Entries are sorted by rising average, undetected variants last. Empty control strains, which show no peptide, gave a signal in 28% of pairings with library AAYL52; the median was 8.2 µM and 95% of these signals were weaker than 800 nM. No background was subtracted.

Kd (apparent)	seen in	CDR-L1	CDR-L2	CDR-L3
28 nM	3 of 3	EGDSLRYYGAN	GKNNRPF	SSRSSSGFQVF
31 nM	3 of 3	EGDQLAYYGAN	GKNNRPS	SSRDSSGFQVF
32 nM	3 of 3	VGDSLPYYYAN	GKNNRPS	SSRDSSGFQVF
52 nM	3 of 3	EGDSLRYYYAN	GKNQRPS	SSRDSSGFHVF
62 nM	3 of 3	EGHSLRQYYAN	GKNNRPS	SARDSSGFQVF
87 nM	3 of 3	EGDSLRYWKAN	GKNNRPS	SSRDSSGFQVF
89 nM	3 of 3	EGDSLRYYYKN	GKNNRPS	HSRDSSGFQVR
130 nM	3 of 3	EGASLRYYYAN	GKNNRPS	SSRDSSHAQVF
210 nM	3 of 3	EGDSLRYYDAN	GSNNRPS	SSRDSSMFQVF
260 nM	3 of 3	EGDSLRYKYAN	GKNNRMS	SSRDSSGFQSF
290 nM	3 of 3	MGDSLRYYYAN	GKNARGS	SSRDSSGFQVF
420 nM	3 of 3	EGDSLRYYYTN	GKNNRPS	SSRDSMGFQVR
480 nM	3 of 3	EGDSLRYYYAN	GNNKRES	SSRDSSGFQVF
490 nM	3 of 3	EGDWLRYYYAN	GWNNRPS	SSRDSSGFQVA
550 nM	3 of 3	EGDSLRYYYAN	GDCERPS	SSRDSSGFQVF
620 nM	3 of 3	EGDSLRYYYAN	GKNMRPS	SSRASSGKQVF
640 nM	3 of 3	EGQSLRYYYAN	GKANRPS	SSRDSSGFLVF
650 nM	3 of 3	EGDSLGYIYAN	GKNNRPS	ESRDSSGFQVF
720 nM	2 of 3	EGDSLRYYRAN	GRNNRPS	SSRDSSGWQVF
790 nM	3 of 3	KGDSLFYYYAN	GKNNRPS	SSRDSWGFQVF
800 nM	3 of 3	EGDSLRYYWAN	GKNNRPS	SSRDSRGFQMF
880 nM	3 of 3	ETDNLRYYYAN	GKNNRPS	SSRDSSGYQVF
1.0 µM	3 of 3	ECASLRYYYAN	GKNNRPS	SSRDSSGFQVF
1.1 µM	3 of 3	EGQDLRYYYAN	GKNNRPS	SSRDSSGFQFF
1.1 µM	3 of 3	EGDSLRYYYAN	GKNNRPL	SSRDSKGFQVD
1.2 µM	1 of 3	EGDSLFCYYAN	GKWNRPS	SSRDSSGFQVF
1.2 µM	3 of 3	EGDSLRYYYAN	GKNNRPS	SSRISSDVQVF
1.6 µM	3 of 3	EGDSLRMYYAN	GKNNRPS	SSEDSSGIQVF
2.7 µM	3 of 3	EGDSLRYYYAN	GKNNRAL	SSRNSSGFQVF
2.7 µM	3 of 3	EGDSLRAYYAN	GKNNRPS	SSRDSSPFQVF
2.8 µM	2 of 3	EFDSLRYYYAN	GYNNRPS	SSRPSSGFQVF
3.6 µM	3 of 3	EGDGLRYYYAN	GPNNRPS	SSRDSFGFQVF
3.8 µM	3 of 3	EGDSARTYYMN	GKNNRPS	SSRDSSGFQVF
4.0 µM	2 of 3	EGDCLKYYYAN	GKNNRPS	SSRDSSGVQVF
4.1 µM	2 of 3	ECDSLRYYYAN	GKNNRPS	SSKDMSGFQVF
4.5 µM	2 of 3	EGDSLRYFYAN	GKNNRIS	SSRDSSTFQVF
5.1 µM	1 of 3	EGDSLRYYYTN	GKNNRLS	SSRDSSGFMVF
5.1 µM	3 of 3	EGDSPRYYAAN	GKNNRPS	SSRDSSGLQVF
5.7 µM	2 of 3	SGDSLRYYRAN	GKNNRPS	SSWDSSGFQVF
6.3 µM	1 of 3	EGDSLRYYYAN	MKHNRPS	SSIDSSGFQVF
7.5 µM	2 of 3	EGDSLRYYYAN	VKNNEMS	SSRDSSGFQVF
7.9 µM	3 of 3	EYDSLRYYYAN	GKNNRPS	SHRDSSGFQCF
8.3 µM	2 of 3	MGDDLRYYYAN	NKNNRPS	SSRDSSGFQVF
8.3 µM	2 of 3	EGDSLRLYYAN	GKINRPS	SSRISSGFQVF
9.1 µM	2 of 3	EGDSLVYYYAN	GKCNRPS	SSRLSSGFQVF
11 µM	2 of 3	RWDSLRYYYAN	GKNNRPS	SSRDSSYFQVF
12 µM	2 of 3	EGGSLRYYYAN	GKNNAPS	SGRDSSGFQVF
12 µM	2 of 3	EGDSLYYYWAN	GKNNRPS	SSRNSSGFQVF
13 µM	3 of 3	EGDSKPYYYAI	GKNNRPS	SSRDSSGFQVF
13 µM	1 of 3	EGDSLRYTYAN	GKNNRPS	SISDSSGFQVF
15 µM	2 of 3	EGDILRYYYAN	GKNNRPS	SSWDSSGFQVF
15 µM	2 of 3	ERYSLRYYYAN	GKNNRPS	SSDDSSGFQVF
15 µM	1 of 3	EGDSLRYYYAN	GKHNRPS	SSRRSSGFQEF
19 µM	2 of 3	EGDSLRYYYEN	GKNNRPS	PSRDSYGFQVF
20 µM	1 of 3	ENDSLDYYYAN	GKNNRPS	SSRDSSGPQVF
27 µM	2 of 3	EIDSLRYYFAN	GKNCRPS	SSRDSSGFQVF
29 µM	3 of 3	EGDSLEYYYAN	GKNNRPS	SSRSSSGIQVF
36 µM	2 of 3	EGDSWRYYYAN	GKLNRPS	SSRDSSGDQVF
41 µM	1 of 3	EGDSLRYYYAN	GKNACPS	SSRDSSGFQEF
42 µM	1 of 3	EGDSLRYYYAN	GKNNRPS	DSGDSSGFQVI
46 µM	1 of 3	EGDSIRFYYAN	GKNNRPS	SSRDSSRFQVF
52 µM	1 of 3	EGDSSRYYYAN	GKNNRPS	SSRDSMGFEVF
67 µM	3 of 3	EGDSLRYYYNN	GKNNRPS	SSKDSSGFQVG
71 µM	1 of 3	EGDSLRYYYAN	IKNNRPS	SSRDSSGTQVF
86 µM	1 of 3	EGDRLRYYYAN	GKNNRPS	SSRDSHGFKVF
91 µM	1 of 3	EGDKLRYYYAN	GKENRPS	SHRDSSGFQVF
100 µM	1 of 3	EGISLRYYYAN	VKNNRPS	YSRDSSGFQVF
110 µM	2 of 3	EGDSLRYYYAG	GKNNRPS	SSWDASGFQVF
140 µM	2 of 3	EGDSLRYYYAN	GRNNRPS	VSRDSSGFQDF
170 µM	3 of 3	EGDSLRYYQAN	IKNNRPS	SSSDSSGFQVF
not detected	0 of 3	EGFSWRYYYAN	GKNNRPS	SSRDSSGFQVT
not detected	0 of 3	EGDSLRYYYAN	DKNNMPS	SSRLSSGFQVF
not detected	0 of 3	EIDSLRYYYAN	GKNNRPS	SSRTSCGFQVF
not detected	0 of 3	EPDSLRYYYAN	GRNNRPS	SERDSSGFQVF
not detected	0 of 3	EGDSLRYYYAN	GKVNRPS	SSRDSSGFQVK
not detected	0 of 3	EGDSLRYYYGN	GKNNRNS	SSRDSSGCQVF
not detected	0 of 3	EGDSLRYYYAN	MKLNRPS	SSRDSSGFQVF
not detected	0 of 3	EGDSLVYYYAN	GKNNRPS	KSRDSSGFQVF
not detected	0 of 3	LGDSLRYYYAY	GKNNRPS	SSRWSSGFQVF
not detected	0 of 3	EGDSLRYYYAN	GKNNRTS	SSRDSSGIQDF

Top 10 of the variants detected in all replicates, tightest first:

CDR-L1	CDR-L2	CDR-L3	Kd (apparent)	seen in
EGDSLRYYGAN	GKNNRPF	SSRSSSGFQVF	28 nM	3 of 3
EGDQLAYYGAN	GKNNRPS	SSRDSSGFQVF	31 nM	3 of 3
VGDSLPYYYAN	GKNNRPS	SSRDSSGFQVF	32 nM	3 of 3
EGDSLRYYYAN	GKNQRPS	SSRDSSGFHVF	52 nM	3 of 3
EGHSLRQYYAN	GKNNRPS	SARDSSGFQVF	62 nM	3 of 3
EGDSLRYWKAN	GKNNRPS	SSRDSSGFQVF	87 nM	3 of 3
EGDSLRYYYKN	GKNNRPS	HSRDSSGFQVR	89 nM	3 of 3
EGASLRYYYAN	GKNNRPS	SSRDSSHAQVF	130 nM	3 of 3
EGDSLRYYDAN	GSNNRPS	SSRDSSMFQVF	210 nM	3 of 3
EGDSLRYKYAN	GKNNRMS	SSRDSSGFQSF	260 nM	3 of 3